Experimental data taken from EP1721601A1, “Use of taurine for enhancing lipid synthesis in the epidermis” (Henkel Kommanditgesellschaft auf Aktien, priority 2005, dated 2006).

Key:
Type in all cases: cell-based
[1] = test system: Interleukin 1-alpha (IL-1alpha); assay: Irritation markers in vitro: IL-1alpha release of SDS-damaged epidermis models; details: 1 h 0,18% SDS, rinsed, then 24 h topical emulsion (C: 0.1 Gew.-% Triamcinolonacetonid; E: 1 Gew.-% Taurin; B: no further treatment); mean +/- SEM, n=3; unbehandelt 15, Vehikel 387
Protocol: (§1) Epidermismodelle wurden 1 Stunde lang topisch mit einer wässrigen Lösung von 0,18% SDS in Wasser inkubiert. Diese Behandlung resultierte erwartungsgemäß in einer deutlichen Verminderung der zellulären Vitalität, einer gesteigerten Freisetzung von LDH (Lactatdehydrogenase), Interleukin 1-alpha (IL-1alpha) und Prostaglandin E2 (PGE2). Anschließend wurden die Epidermismodelle abgespült und für weitere 24h unter topischer Applikation folgender Emulsionen inkubiert: C: Kortikoid-ratiopharm® Creme (0.1 Gew.-% Triamcinolonacetonid); D: 1,5 Gew.-% Behenylalkohol + 2,75 Gew.-% Arachidylalkohol; E: 1,5 Gew.-% Behenylalkohol + 2,75 Gew.-% Arachidylalkohol +1 Gew.-% Taurin. Zur Kontolle wurden Epidermismodelle unbehandelt kultiviert (A) oder verblieben nach Abspülung der SDS-Lösung unbehandelt (B). Die Daten repräsentieren die Mittelwerte +/-SEM (n=3).

Epidermismodelle = assay: Irritation markers in vitro: viability and LDH release of SDS-damaged epidermis models; details: 1 h 0,18% SDS, rinsed, then 24 h topical emulsion (C: 0.1 Gew.-% Triamcinolonacetonid; E: 1 Gew.-% Taurin; B: no further treatment), mean +/- SEM, n=3
Protocol: as §1

Prostaglandin E2 (PGE2) = assay: Irritation markers in vitro: PGE2 release of SDS-damaged epidermis models; details: 1 h 0,18% SDS, rinsed, then 24 h topical emulsion (C: 0.1 Gew.-% Triamcinolonacetonid; E: 1 Gew.-% Taurin; B: no further treatment); mean +/- SEM, n=3; unbehandelt 0,84, Vehikel 1,40
Protocol: as §1

For CCCCCCCCCCCCOS(=O)(=O)O [SDS, Natriumdodecylsulfat, reference compound], the IL-1alpha-Freisetzung [1] was 395 ± 106 pg/mL, the LDH-Freisetzung (Epidermismodelle; unbehandelt 0,22, Vehikel 1,95) was 2,21 +/- 0,35 OD 492nm and the Vitalität (Epidermismodelle; unbehandelt 100, Vehikel 66) was 53 +/- 12%. The PGE2-Freisetzung (Prostaglandin E2 (PGE2)) was 6,69 +/- 0,68 ng/ml.
